System: Nc1ncnc2c1ncn2[C@@H]1O[C@H](COP(=O)(O)OP(=O)(O)OP(=O)(O)O)[C@@H](O)[C@H]1O
Test: purified protein
Settings: presumably with KanA co-substrate (100 μM in this experiment), 50 mM Tris-HCl pH 7.5, 40 mM KCl, 1 mM free MgCl2, 25 °C, ATP as MgATP

APH(3′)-IIIa (aminoglycoside phosphotransferase(3′)-IIIa) (Enterococcus faecalis)
Km: 10 µM

Source: publication PMC3510435 (Febs Letters, 2012)
